Legend:
Type in all cases: functional
Streptococcus agalactiae = experiment: Antibacterial activity against Streptococcus agalactiae assessed as percent susceptible isolates by CLSI M100-S18 method
[1] = Antibacterial activity against Lancefield Streptococcus sp. 'group C' assessed as percent susceptible isolates by CLSI M100-S18 method
[2] = Antibacterial activity against Lancefield Streptococcus sp. 'group G' assessed as percent susceptible isolates by CLSI M100-S18 method

Measured: Activity

CC[C@H]1OC(=O)[C@H](C)[C@@H](O[C@H]2C[C@@](C)(OC)[C@@H](O)[C@H](C)O2)[C@H](C)[C@@H](O[C@@H]2O[C@H](C)C[C@H](N(C)C)[C@H]2O)[C@](C)(O)C[C@@H](C)CN(C)[C@H](C)[C@@H](O)[C@]1(C)O [AZITHROMYCIN]
98%: all assays above

Reference: ChEMBL document CHEMBL1649565, “Besifloxacin, a novel fluoroquinolone, has broad-spectrum in vitro activity against aerobic and anaerobic bacteria” (Antimicrob Agents Chemother, 2009)
